Test results published in patent publication US20140163075A1, “MODULATION OF THE UBIQUITIN-PROTEASOME SYSTEM (UPS)” (NETHERLAND CANCER INSTITUTE, priority 2011, published 2014).

Tested on: proteasome subunits (β2- and β5-subunits)
Assay: SDS-PAGE in-gel fluorescence of probe-labelled proteasome subunits in MelJuSo (MEL-JUSO) cells
Assay type: cell-based, human
Experimental: Cells were washed once with phosphate buffered saline (PBS, 1 GIBCO tablet in 500 mL MilliQ). Fresh medium containing the compound at the indicated concentration was added. After the incubation time 200 nM of Me4BodipyFL-Ahx3Leu3VS activity probe was added to the cells and after two hours of incubation cells were harvested for subsequent analysis by FACS or post-lysis fluorescence detection.
Cells were washed once with PBS, trypsin (6 well plate: 500 μL, 12 well plate: 200 μL, 24 well plate: 100 μL) was added and the plate was placed at 37° C. for 5 minutes to allow the cells to detach. When fully detached the cells were resuspended in fresh culture medium. […] After a centrifugation step (13.600 rpm for 10 minutes) to remove cell debris the protein concentration (absorbance at 280 nm) of the supernatant is measured with a NanoDrop spectrophotometer. […]
Equal amounts of protein (15-20 μg) were denatured by heating the samples for 10 minutes at 71° C. in loading buffer (450 μL 4× loading buffer (Invitrogen), 45 μL β-Mercaptoethanol and 105 μl, MilliQ, 2 parts sample to 1 part loading buffer). […] Images were analyzed using Totallab analysis software (Nonlinear Dynamics, Newcastle upon Tyne, UK) to quantify the intensity of the bands detected. […]

O=[N+]([O-])c1ccc(-c2nc(-c3ccc(F)cc3)c(-c3ccncc3)[nH]2)cc1 [PD169316]
fluorescent signal of the β2- and β5-subunits: seemed to increase the fluorescent signal
